Yeast UUG start – modulators of start codon recognition fidelity in yeast | S. cerevisiae UUG-firefly luciferase reporter, luminescence/redox ratio | activity score, % at 18.7 µM | 350,000 tested, 0.13% active;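 active = replicate mean at a twofold rise or more, about +100% in these data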;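 also: firefly luciferase made from a UUG start codon reports start codon fidelity; reporter light over untreated wells divided by growth signal over untreated wells; some hits fall short of that in this replicate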
DENV2 CPE rescue – inhibitors of DENV2 cytopathic effect, primary screen, cell-based, plate reader, single concentration | DENV2-infected cells, cytopathic effect rescue | CPE inhibition, % at 9.99 µM | hit rate 1.7% among 350,000 | AID 651640, 2012; in the data active = CPE inhibition above about 20%, passing the limit was not always enough; inconclusive = no clear call, values can overlap the other calls; tested in BHK-21 cells;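 note: 0% = median of neutral control wells and 100% = median of positive control wells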
Cneo AK release – Cryptococcus neoformans cell lysis inducers, primary screen, AK release luminescence, single concentration; hit rate 0.2% among 360,000; lysis activity, % at 15 µM; C. neoformans lysis, adenylate kinase release luminescence, 4 h; normalised: neutral wells 0, clomiphene wells 100;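 active = mean lysis activity across replicates of at least 80%, whatever share of replicates individually reach that level; inactive = mean lysis activity below 80%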
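read-out = cell lysis signal | test system = log-phase Cryptococcus neoformans yeast cells | input = cells at 5 × 10^6 per mL | medium = fresh YPD growth medium | signal = luminescent adenylate kinase detection reagent | timing = 4 h at 37 °C static, read 1 h later | dosing = single dose | controls = Clomiphene as positive lysis control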
E-sel inducer – E-selectin induction in HUVECs, primary screen, imaging, HUVEC, immunofluorescence imaging, single point. P16581. normalized: neutral wells 0, TNF-alpha wells 100. activation, % at 7.58 µM. hit rate 0.37% among 260,000;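 active = mean E-selectin-positive cell signal at least 10% of the positive control, reached in at least 60% of replicates, without over 20% cell loss; inconclusive = no rule given, readout overlaps actives, possibly toxicity-flagged; inactive = the rest, including those meeting only one limit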
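Test system: HUVEC; input: 3,000 HUVEC/well; measured by: immunofluorescence imaging; read-out: % PE-positive cells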
* = called active by the depositor; ? = inconclusive; · = not tested or not shown. Most compounds without a hit are left out; they make up all but 1.8% or so of the library.

Screens by letter: A = Yeast UUG start; B = DENV2 CPE rescue; C = Cneo AK release; D = E-sel inducer
Cc1cccc(C(=O)N2CCC(=O)N([C@H](COCc3ccc(Cl)cc3)Cc3ccccc3)CC2)c1
  A: ·	B: 124.6*	C: ·	D: -1.2
Cc1cccc(C(=O)N2CCC(=O)N(C(COCc3ccc(Cl)cc3)Cc3ccccc3)CC2)c1 (stereo not given)
  A: -10.3	B: 0.9	C: 1.6	D: 0.0
O=C(NC[C@@H]1[C@H](c2ccccc2)[C@H](CO)N1CC1CC1)c1cccnc1
  A: 10.2	B: -5.5	C: 6.9	D: -0.1
COc1ccc(C(=S)N2CCOCC2)cc1OC(=O)c1ccccc1
  A: -5.1	B: 23.7*	C: 9.0	D: -0.1
Cc1noc(C)c1S(=O)(=O)Nc1ccc2c(c1)C(=O)N([C@H](C)CO)C[C@@H](C)[C@H](CN(C)Cc1ccc(C(F)(F)F)cc1)OCCCC[C@@H](C)O2
  A: ·	B: -3.6	C: 7.0	D: -0.3
CSc1nc2c(=S)[nH]c(=S)[nH]c2s1
  A: ·	B: 87.3*	C: ·	D: -0.1
C[C@@H]1CN([C@H](C)CO)C(=O)c2cc(NC(=O)Nc3ccc(F)cc3)ccc2O[C@@H](C)CCCCO[C@H]1CN(C)C
  A: 34.2	B: 41.8*	C: 74.8	D: 0.3
C[C@H]1CCCCO[C@H](CN(C)C(=O)c2ccccc2)[C@@H](C)CN([C@@H](C)CO)C(=O)c2cc(NC(=O)Nc3ccc(F)cc3)ccc2O1
  A: -3.0	B: 27.8*	C: 0.1	D: 0.1
C[C@H](CO)N1C[C@H](C)[C@H](CN(C)C(=O)c2ccccc2)OCCCC[C@H](C)Oc2ccc(NC(=O)Nc3ccc(C(F)(F)F)cc3)cc2C1=O
  A: -12.2	B: 58.5*	C: 0.0	D: 2.8
CNC[C@@H]1OCCCC[C@H](C)Oc2ccc(NC(=O)Nc3ccc(F)cc3)cc2C(=O)N([C@@H](C)CO)C[C@H]1C
  A: 37.9	B: -2.4	C: 101.3*	D: -0.2
COc1ccc(CNC(=O)C[C@@H]2CC[C@@H]3[C@H](COc4ccc(NC(C)=O)cc4C(=O)N3C)O2)cc1
  A: -13.0	B: -1.8	C: 6.4	D: 0.0
CC(C)NC(=O)N(C)C[C@@H]1OCCCC[C@H](C)Oc2ccc(NC(=O)Nc3ccc(F)cc3)cc2C(=O)N([C@@H](C)CO)C[C@H]1C
  A: 6.4	B: 39.1*	C: -2.7	D: 1.2
C[C@@H]1CN([C@@H](C)CO)C(=O)c2cc(NC(=O)Nc3ccc(F)cc3)ccc2O[C@@H](C)CCCCO[C@@H]1CN(C)C(=O)Nc1ccc2c(c1)OCO2
  A: ·	B: 23.0*	C: ·	D: 0.4
COc1ccc(NC(=O)N(C)C[C@@H]2OCCCC[C@@H](C)Oc3ccc(NC(=O)Nc4ccc5c(c4)OCO5)cc3C(=O)N([C@@H](C)CO)C[C@H]2C)cc1
  A: 10.3	B: -3.0	C: 88.4*	D: 0.3
C[C@@H]1CCCCO[C@@H](CN(C)C(=O)Nc2ccc(F)cc2)[C@H](C)CN([C@H](C)CO)C(=O)c2cc(NC(=O)Nc3ccc(F)cc3)ccc2O1
  A: 2.0	B: 64.7*	C: -3.7	D: ·
C[C@@H]1CCCCO[C@H](CN(C)C(=O)Nc2ccc(F)cc2)[C@H](C)CN([C@H](C)CO)C(=O)c2cc(NC(=O)Nc3ccc(F)cc3)ccc2O1
  A: -5.8	B: -1.1	C: -2.5	D: ·
COc1ccc(NC(=O)N(C)C[C@@H]2OCCCC[C@@H](C)Oc3ccc(NC(=O)Nc4ccc5c(c4)OCO5)cc3C(=O)N([C@H](C)CO)C[C@H]2C)cc1
  A: -1.0	B: -2.4	C: 1.5	D: 0.0
CC(C)NC(=O)N(C)C[C@H]1OCCCC[C@@H](C)Oc2ccc(NC(=O)Nc3ccc(F)cc3)cc2C(=O)N([C@H](C)CO)C[C@@H]1C
  A: -9.9	B: 1.0	C: -3.9	D: 1.0
C[C@@H]1CN([C@H](C)CO)C(=O)c2cc(NS(=O)(=O)c3ccc(Cl)cc3)ccc2O[C@@H]1CN(C)S(=O)(=O)c1cn(C)cn1
  A: 12.1	B: 2.4	C: 5.1	D: -7.4
CC(C)NC(=O)Nc1ccc2c(c1)C(=O)N([C@H](C)CO)C[C@H](C)[C@@H](CN(C)C(=O)NC(C)C)OCCCC[C@H](C)O2
  A: ·	B: 4.4	C: 113.5*	D: ·
CC(C)NC(=O)Nc1ccc2c(c1)C(=O)N([C@H](C)CO)C[C@@H](C)[C@@H](CN(C)C(=O)NC(C)C)OCCCC[C@@H](C)O2
  A: ·	B: 0.2	C: -0.4	D: ·
C[C@H](CO)N1C[C@H](C)[C@@H](CN(C)S(=O)(=O)c2ccc(F)cc2)Oc2c(NS(=O)(=O)c3cccs3)cccc2C1=O
  A: ·	B: ?	C: ·	D: -0.4
C[C@@H]1CN([C@H](C)CO)C(=O)c2cc(NS(=O)(=O)c3ccccc3)ccc2O[C@@H](C)CCCCO[C@@H]1CN(C)C(=O)NC1CCCCC1
  A: 9.0	B: 75.5*	C: 0.3	D: -0.2
C[C@H]1CCCCO[C@@H](CN(C)C(=O)NC2CCCCC2)[C@@H](C)CN([C@@H](C)CO)C(=O)c2cc(NS(=O)(=O)c3ccccc3)ccc2O1
  A: 8.0	B: 30.3*	C: 2.2	D: -0.1
C[C@@H]1CCCCO[C@H](CN(C)C(=O)NC2CCCCC2)[C@@H](C)CN([C@@H](C)CO)C(=O)c2cc(NS(=O)(=O)c3ccccc3)ccc2O1
  A: 11.2	B: -13.3	C: -0.3	D: -0.2
COc1ccc2c3c(n(C)c2c1)[C@@H](CO)N(C(C)=O)CC31CCN(S(=O)(=O)c2ccccc2)CC1
  A: ·	B: -8.1	C: ·	D: -0.2
Cc1cc(F)cc(-c2cc(C(=O)NCC3CCCCC3)[nH]n2)c1
  A: -23.3	B: 27.1*	C: -1.1	D: -0.1
CS(=O)(=O)Nc1ccc2c(c1)[C@@H]1C[C@@H](CC(=O)NC3CCCCC3)O[C@H](CO)[C@@H]1O2
  A: 51.8	B: -5.5	C: -0.7	D: -0.5
CC1CCC(CN2C(Nc3ccccc3)=NC[C@@H]2C)CC1 (stereo not given in full)
  A: -12.4	B: 40.1*	C: 1.0	D: 0.0
c1ccc(C[C@H]2CN=C(Nc3ccccc3)N2CCCC2CCCCC2)cc1
  A: -15.6	B: 0.5	C: 1.4	D: 0.0
CC1CCC(CN2C(Nc3ccccc3)=NC[C@@H]2Cc2ccccc2)CC1 (stereo not given in full)
  A: 6.0	B: -2.9	C: 3.0	D: 0.2
CCCCN1C(Nc2ccccc2)=NC[C@@H]1Cc1ccccc1
  A: -2.4	B: 21.6*	C: -0.8	D: 0.0
C[C@@H]1CCCCO[C@H](CN(C)Cc2ccc(C(=O)O)cc2)[C@H](C)CN([C@H](C)CO)C(=O)c2cc(NC(=O)C3CCCCC3)ccc2O1
  A: 8.1	B: 4.6	C: 2.8	D: 0.3
CO[C@H]1CN(C)C(=O)c2ccc(NC(C)=O)cc2OC[C@H](C)N(C(=O)CN2CCOCC2)C[C@H]1C
  A: -7.1	B: 13.5	C: -3.7	D: 0.3
CCC(=O)N1[C@@H]2Cn3c(cccc3=O)[C@H]1[C@@H](C(=O)NCc1ccccc1)[C@@H]2CO
  A: ·	B: ?	C: 99.4*	D: -0.1
CCC(=O)N1[C@@H]2c3cccc(=O)n3C[C@H]1[C@H](CO)[C@H]2C(=O)NCc1ccc(F)cc1
  A: ·	B: ?	C: 1.6	D: -0.5
CCC(=O)N1[C@@H]2c3cccc(=O)n3C[C@H]1[C@H](CO)[C@H]2C(=O)NCc1ccccc1
  A: ·	B: -1.6	C: 93.2*	D: 0.1
O=C(C[C@H]1CC[C@@H]2[C@H](COC[C@@H](O)CN2C(=O)C2CCOCC2)O1)NCc1ccncc1
  A: -11.7	B: 9.8	C: -2.2	D: 0.0
CN(C)C(=O)C[C@@H]1CC[C@@H]2[C@@H](COc3ccc(NC(=O)c4ccc(F)c(F)c4)cc3C(=O)N2C)O1
  A: 17.4	B: -7.7	C: 0.7	D: 0.0
